Laboratory results taken from IntAct's records for PubMed 24245804.

B1: S-adenosylmethionine-dependent nucleotide dehydratase RSAD2 (Homo sapiens), Q8WXG1 (parent)
chain: MWVLTPAAFAGKLLSVFRQPLSSLWRSLVPLFCWLRATFWLLATKRRKQQLVLRGPDETKEEEEDPPLPTTPTSVNYHFTRQCNYKCGFCFHTAKTSFVLPLEEAKRGLLLLKEAGMEKINFSGGEPFLQDRGEYLGKLVRFCKVELRLPSVSIVSNGSLIRERWFQNYGEYLDILAISCDSFDEEVNVLIGRGQGKKNHVENLQKLRRWCRDYRVAFKINSVINRFNVEEDMTEQIKALNPVRWKVFQCLLIEGENCGEDALREAERFVIGDEEFERFLERHKEVSCLVPESNQKMKDSYLILDEYMRFLNCRKGRKDPSKSILDVGVEEAIKFSGFDEKMFLKRGGKYIWSKADLKLDW
partner: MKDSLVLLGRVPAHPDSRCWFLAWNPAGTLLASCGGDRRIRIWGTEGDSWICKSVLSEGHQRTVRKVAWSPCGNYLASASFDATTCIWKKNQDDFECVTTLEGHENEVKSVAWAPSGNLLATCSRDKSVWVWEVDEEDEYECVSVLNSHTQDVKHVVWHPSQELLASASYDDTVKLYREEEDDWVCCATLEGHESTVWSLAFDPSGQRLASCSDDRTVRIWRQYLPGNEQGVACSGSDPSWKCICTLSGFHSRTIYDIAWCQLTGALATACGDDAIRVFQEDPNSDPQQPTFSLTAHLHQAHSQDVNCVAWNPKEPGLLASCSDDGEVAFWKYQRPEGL

Variants of: B1
Settings: with ciao1_human CIAO1, O76071

Row | Variant | effect of a mutation on the interaction
1 | MWVLTPAAFAGKLLSVFRQPLSSLWRSLVPLFCWLRATFWLLATKRRKQQLVLRGPDETKEEEEDPPLPTTPTSVNYHFTRQCNYKCGFCFHTAKTSFVLPLEEAKRGLLLLKEAGMEKINFSGGEPFLQDRGEYLGKLVRFCKVELRLPSVSIVSNGSLIRERWFQNYGEYLDILAISCDSFDEEVNVLIGRGQGKKNHVENLQKLRRWCRDYRVAFKINSVINRFNVEEDMTEQIKALNPVRWKVFQCLLIEGENCGEDALREAERFVIGDEEFERFLERHKEVSCLVPESNQKMKDSYLILDEYMRFLNCRKGRKDPSKSILDVGVEEAIKFSGFDEKMFLKRGGKYIWSKADLKLDA [W361A] | disrupting interaction strength
2 | MWVLTPAAFAGKLLSVFRQPLSSLWRSLVPLFCWLRATFWLLATKRRKQQLVLRGPDETKEEEEDPPLPTTPTSVNYHFTRQANYKAGFAFHTAKTSFVLPLEEAKRGLLLLKEAGMEKINFSGGEPFLQDRGEYLGKLVRFCKVELRLPSVSIVSNGSLIRERWFQNYGEYLDILAISCDSFDEEVNVLIGRGQGKKNHVENLQKLRRWCRDYRVAFKINSVINRFNVEEDMTEQIKALNPVRWKVFQCLLIEGENCGEDALREAERFVIGDEEFERFLERHKEVSCLVPESNQKMKDSYLILDEYMRFLNCRKGRKDPSKSILDVGVEEAIKFSGFDEKMFLKRGGKYIWSKADLKLDW [C83A;C87A;C90A] | with no effect
